{"sequences": {"note": "Chains of the proteins cited; added tags and fusions are not shown.", "UniProt O08725, whole entry": "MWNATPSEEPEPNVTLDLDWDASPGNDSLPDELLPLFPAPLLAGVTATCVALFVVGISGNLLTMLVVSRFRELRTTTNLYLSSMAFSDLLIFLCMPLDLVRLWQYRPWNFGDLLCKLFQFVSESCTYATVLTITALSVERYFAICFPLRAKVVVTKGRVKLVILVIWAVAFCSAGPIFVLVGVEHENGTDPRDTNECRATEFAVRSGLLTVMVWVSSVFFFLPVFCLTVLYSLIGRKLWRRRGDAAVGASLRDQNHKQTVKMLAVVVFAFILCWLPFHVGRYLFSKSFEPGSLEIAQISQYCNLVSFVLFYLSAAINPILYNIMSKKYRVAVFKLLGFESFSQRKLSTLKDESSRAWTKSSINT"}, "source": "patent US7385026B1", "about": "“Modified ghrelin polypeptides” (priority 1999, dated 2008)", "molecular_target": "T1, rat GHS-receptor (GHR-R) (Rattus norvegicus, UniProt O08725)", "T1 construct": "A full-length cDNA for rat GHR-R was obtained by RT-PCR; expressed in transfected cells", "assay": "Ca-releasing activity (increase in intracellular calcium) in CHO-GHSR62 cells, FLIPR", "type": "cell-based", "excerpt": "To assay an increase in the intracellular calcium ion concentration (Ca-releasing activity) occurring upon binding of a GH secretagogue (GHS) to GHS-receptor (GHR-R), a cell strain expressing rat GHR-R was created in the following manner. A full-length cDNA for rat GHR-R was obtained by RT-PCR (reverse transcriptase-polymerase chain reaction) where a cDNA derived from rat brain was used as template. From the nucleotide sequence of known rat GHR-R [K. K. Mckee, et al, Molecular Endocrinology 11, 415-423 (1997)], sense and antisense primers consisting of the following nucleotide sequences were synthesized.\nThe amplified cDNA was ligated to vector pcDNAIII (Invitrogen) to construct expression vector GHSR-pcDNAIII. CHO cells were transformed via the expression vector, and the transformed cells stably expressing GHR-R were selected in a medium containing 1 μg/ml G418. […] A change in the intracellular calcium ion concentration (Ca-releasing activity) was measured by an FLIPR system (Molecular Device). […] Then, the cells were incubated with 4 μM fluorescent Fluo4 (Molecular Probe Co., Ltd) for 1 hour and washed four times with Hank's BSS (Hank's Balanced Salt Solution) containing 20 mM Hepes ([N-2-hydroxyethyl]-piperazine-N-[2-ethanesulfonic acid]) and 2.5 mM probenecid, and the Ca-releasing activity was assayed by adding a sample and measuring a change in the fluorescence. […]"}
{"substance": "GHRP-6 [reference compound]", "values": [{"measurement": "concentration to which CHO-GHSR62 cells responded", "result": "10^−10 to 10^−9 M"}]}
